Patent publication US8389511B2, “Bicyclic heterocyclic derivative” (Dainippon Sumitomo Pharma Co., Ltd., priority 2007, dated 2013)

Protein sequences, listed by entry. Tags and fused reporters are not part of them. Residues count along the entry.
UniProt P00797, 67-406 limits assumed: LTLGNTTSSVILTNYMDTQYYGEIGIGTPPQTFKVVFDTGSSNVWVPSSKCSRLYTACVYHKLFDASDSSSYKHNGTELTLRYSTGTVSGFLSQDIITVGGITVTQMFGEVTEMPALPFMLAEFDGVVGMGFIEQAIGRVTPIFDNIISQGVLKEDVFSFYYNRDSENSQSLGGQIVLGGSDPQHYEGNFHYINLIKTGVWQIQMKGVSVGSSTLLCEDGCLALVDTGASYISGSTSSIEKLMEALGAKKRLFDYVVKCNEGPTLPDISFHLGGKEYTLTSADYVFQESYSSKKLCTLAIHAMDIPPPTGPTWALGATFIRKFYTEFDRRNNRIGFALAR

Target: Recombinant human renin (Homo sapiens, UniProt P00797)
Experiment: In vitro renin inhibitory activity assay (fluorescence, EDANS/DABCYL peptide substrate)
Assay type: biochemical
Conditions: read-out: Human renin inhibitory activity IC50; recombinant human renin (50 ng), 0.1M HEPES buffer pH 7.4, substrate 4 μM, 37° C., one hour, fluorescence 340/500 nm; tested form: HCl

IC50 | Structure (SMILES)
6.1 nM | COCCCN1C(=O)C(C)(C)Oc2cc(C)c(C(=O)N(C(C)C)[C@@H]3CCCNC3)cc21
10 nM | CCc1cc2c(cc1C(=O)N(C(C)C)[C@@H]1CCCNC1)N(CCCOC)C(=O)C(C)(C)O2
0.1 nM | COC(=O)NCCN1C(=O)C(C)(C)Oc2cc(Br)c(C(=O)N(C(C)C)[C@@H]3CCCNC3)cc21
2.4 nM | COCCCN1C(=O)C(C)(C)Oc2cc(Cl)c(C(=O)N(C(C)C)[C@@H]3CCCNC3)cc21
3.2 nM | COC(=O)NCCN1C(=O)[C@@H](C)Oc2cc(C)c(C(=O)N(C(C)C)[C@@H]3CCCNC3)cc21
3 nM | COC(=O)NCCN1C(=O)C(C)(C)Oc2cc(Cl)c(C(=O)N(C(C)C)[C@@H]3CCCNC3)cc21
5.3 nM | COCCCCN1C(=O)C(C)(C)Oc2cc(C)c(C(=O)N(C(C)C)[C@@H]3CCCNC3)cc21
0.1 nM | COCCCCN1C(=O)C(C)(C)Oc2cc(Cl)c(C(=O)N(C(C)C)[C@@H]3CCCNC3)cc21
0.6 nM | COC(=O)NCCN1C(=O)C(C)(C)Oc2cc(C)c(C(=O)N(C(C)C)[C@@H]3CCCNC3)cc21

The remaining lines, values behind:

Structure (SMILES) | IC50
CCCc1cc2c(cc1C(=O)N(C(C)C)[C@@H]1CCCNC1)N(CCCOC)C(=O)C(C)(C)O2 | 4.3 nM
CCC1Oc2cc(Cl)c(C(=O)N(C(C)C)[C@@H]3CCCNC3)cc2N(CCCOC)C1=O (some centres unmarked) | 17 nM
COC(=O)NCCN1C(=O)[C@@H](C)Oc2cc(Cl)c(C(=O)N(C(C)C)[C@@H]3CCCNC3)cc21 | 4 nM
COCCCCN1C(=O)[C@@H](C)Oc2cc(C)c(C(=O)N(C(C)C)[C@@H]3CCCNC3)cc21 | 3.4 nM
COCCCCN1C(=O)[C@@H](C)Oc2cc(Cl)c(C(=O)N(C(C)C)[C@@H]3CCCNC3)cc21 | 4 nM
COCCCCN1C(=O)C(C)(C)Oc2c(Cl)cc(C(=O)N(C(C)C)[C@@H]3CCCNC3)c(Cl)c21 | 6 nM
COCCCN1C(=O)[C@@H](C)Oc2cc(Cl)c(C(=O)N(C(C)C)[C@@H]3CCCNC3)cc21 | 12 nM
CCOCC1(C)Oc2cc(Cl)c(C(=O)N(C(C)C)[C@@H]3CCCNC3)cc2N(CCCCOC)C1=O (some centres unmarked) | 6 nM
CCC1(C)Oc2cc(Br)c(C(=O)N(C(C)C)[C@@H]3CCCNC3)cc2N(CCCOC)C1=O (some centres unmarked) | 3.3 nM
CCOCCCN1C(=O)C(C)(C)Oc2cc(Cl)c(C(=O)N(C(C)C)[C@@H]3CCCNC3)cc21 | 24 nM
COC(=O)NCCN1C(=O)[C@@H](C)Oc2cc(Br)c(C(=O)N(C(C)C)[C@@H]3CCCNC3)cc21 | 0.4 nM
COCCCN1C(=O)C(C)(C)Oc2cc(C#N)c(C(=O)N(C(C)C)[C@@H]3CCCNC3)cc21 | 26 nM
COCCCCN1C(=O)C(C)(C)Oc2c(Cl)cc(C(=O)N(C(C)C)[C@@H]3CCCNC3)c(Br)c21 | 5.3 nM
CCC1(C)Oc2cc(C#N)c(C(=O)N(C(C)C)[C@@H]3CCCNC3)cc2N(CCCOC)C1=O (some centres unmarked) | 42 nM
COCCCN1C(=O)[C@@H](C)Oc2cc(Br)c(C(=O)N(C(C)C)[C@@H]3CCCNC3)cc21 | 1.7 nM
COCCCCN1C(=O)[C@@H](C)Oc2cc(Br)c(C(=O)N(C(C)C)[C@@H]3CCCNC3)cc21 | 1.9 nM
CCC1(C)Oc2cc(Cl)c(C(=O)N(C(C)C)[C@@H]3CCCNC3)cc2N(CCCOC)C1=O (some centres unmarked) | 12 nM
